Measured values: US11498904B2, “Substituted biaryl compounds as indoleamine 2,3-dioxygenase (IDO) inhibitors” (MERCK SHARP & DOHME CORP., priority 2017, dated 2022)
pIC50: −log10 of the molar value.

Chains of the proteins cited; added tags and fusions are not shown.
UniProt P14902, whole entry: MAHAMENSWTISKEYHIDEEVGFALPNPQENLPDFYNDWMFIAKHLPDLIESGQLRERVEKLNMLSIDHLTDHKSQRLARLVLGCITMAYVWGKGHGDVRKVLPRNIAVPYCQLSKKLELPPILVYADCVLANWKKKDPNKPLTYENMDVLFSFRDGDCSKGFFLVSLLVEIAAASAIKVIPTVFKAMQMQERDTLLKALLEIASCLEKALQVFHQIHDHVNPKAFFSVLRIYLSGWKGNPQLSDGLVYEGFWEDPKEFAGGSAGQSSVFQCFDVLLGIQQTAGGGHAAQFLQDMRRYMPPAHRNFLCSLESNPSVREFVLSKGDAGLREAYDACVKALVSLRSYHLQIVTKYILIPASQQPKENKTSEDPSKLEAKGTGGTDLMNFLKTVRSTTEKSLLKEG

These molecules were tested against IDO1 (Homo sapiens, UniProt P14902) (assay: IDO1 Cellular Assay in HeLa Cells Stimulated with IFNγ). Details: HeLa cells stimulated with IFNγ 100 ng/mL, 300 uM L-tryptophan, about 48 hours, fluorescence readout; read-out: HeLa Cell Potency, IC50.
Type: cell-based

Compound | pIC50
CC1CC1(NC(=O)c1ccc(F)cc1)c1ccc(-c2cnc(C(F)(F)F)cc2C(C)(C)O)nc1 (single isomer, unassigned) [Example 55, 4-fluoro-N-(1-(4′-(2-hydroxypropan-2-yl)-6′-(trifluoromethyl)-[2,3′-bipyridin]-5-yl)-2-methylcyclopropyl)benzamide] | 7.58
CC1CC1(NC(=O)c1ccc(F)cc1)c1ccc(-c2cnc(C(F)(F)F)cc2C(C)(C)O)nc1 (single isomer, unassigned) [Example 56, 4-fluoro-N-(1-(4′-(2-hydroxypropan-2-yl)-6′-(trifluoromethyl)-[2,3′-bipyridin]-5-yl)-2-methylcyclopropyl)benzamide] | 8.08
CC1CC1(NC(=O)c1ccc(F)cc1)c1ccc(-c2cnc(C(F)(F)F)cc2C(C)(C)O)nc1 (single isomer, unassigned) [Example 57] | 7.38
CC1CC1(NC(=O)c1ccc(F)cc1)c1ccc(-c2cnc(C(F)(F)F)cc2C(C)(C)O)nc1 (single isomer, unassigned) [Example 58] | 8.00
CC1CC1(NC(=O)c1ccc(F)cc1)c1ccc(-c2cnc(C(F)(F)F)cc2C(C)(C)O)nc1 (single isomer, unassigned) [Example 59] | 8.31
CC1CC1(NC(=O)c1ccc(F)cc1)c1ccc(-c2cnc(C(F)(F)F)cc2C(C)(C)O)nc1 (single isomer, unassigned) [Example 60] | 8.42
CC(C)Oc1ccc(-c2ccc(C3(NC(=O)c4ccc(C#N)cc4)CCC3)cc2)cn1 [Example 1, 4-Cyano-N-(1-(4-(6-isopropoxypyridin-3-yl)phenyl)cyclobutyl)benzamide] | 8.42
CC(C)Oc1ccc(-c2ccc(C3(NC(=O)c4ccc(C#N)cc4)CCC3)cc2)c(Cl)n1 [Example 2, N-(1-(4-(2-Chloro-6-isopropoxypyridin-3-yl)phenyl)cyclobutyl)-4-cyanobenzamide] | 8.43
COc1cc(C)c(-c2ccc(C3(NC(=O)c4ccc(C#N)cc4)CCC3)cc2)cn1 [Example 3, 4-Cyano-N-(1-(4-(6-methoxy-4-methylpyridin-3-yl)phenyl)cyclobutyl)benzamide] | 8.28
N#Cc1ccc(C(=O)NC2(c3ccc(-c4ccc(OC(F)F)nc4)cc3)CCC2)cc1 [Example 4, 4-Cyano-N-(1-(4-(6-(difluoromethoxy)pyridin-3-yl)phenyl)cyclobutyl)benzamide] | 8.15
N#Cc1ccc(C(=O)NC2(c3ccc(-c4ccc(OC5CC5)nc4)cc3)CCC2)cc1 [Example 5, 4-Cyano-N-(1-(4-(6-cyclopropoxypyridin-3-yl)phenyl)cyclobutyl)benzamide] | 7.74
N#Cc1ccc(C(=O)NC2(c3ccc(-c4ccc(C5CC5)nc4)c(F)c3)CCC2)cc1 [Example 6, 4-Cyano-N-(1-(4-(6-cyclopropylpyridin-3-yl)-3-fluorophenyl)cyclobutyl)benzamide] | 7.44
Cc1cc(C2CC2)ncc1-c1ccc(C2(NC(=O)c3ccc(C#N)cc3)CCC2)cc1F [Example 7, 4-Cyano-N-(1-(4-(6-cyclopropyl-4-methylpyridin-3-yl)-3-fluorophenyl)cyclobutyl)benzamide] | 8.36
N#Cc1ccc(C(=O)NC2(c3ccc(-c4cncc(NS(=O)(=O)C5CC5)c4)cc3)CCC2)cc1 [Example 8, 4-cyano-N-(1-(4-(5-(cyclopropanesulfonamido)pyridin-3-yl)phenyl)cyclobutyl)benzamide] | 5.55
N#Cc1ccc(C(=O)NC2(c3ccc(-c4cnc(C5CC5)nc4)cc3)CCC2)cc1 [Example 9, 4-cyano-N-(1-(4-(2-cyclopropylpyrimidin-5-yl)phenyl)cyclobutyl)benzamide] | 7.72
CC(C)(O)c1ccc(-c2ccc(C3(NC(=O)c4ccc(C#N)cc4)CCC3)cc2)cn1 [Example 10, 4-cyano-N-(1-(4-(6-(2-hydroxypropan-2-yl)pyridin-3-yl)phenyl)cyclobutyl)benzamide] | 6.35
